Laboratory results published in patent US20260174855A1 (priority 2022, published 2026).

Tests used:
[1] = [4, 5]; cited from earlier work
[2] = tested on: neonatal rats; assay: prenatal NorBUP exposure, neonatal global withdrawal score; conditions: NorBUP 0.3-3 mg/kg per day s.c.; naltrexone challenge postnatal day 1

CO[C@]12CC[C@@]3(C[C@@H]1[C@](C)(O)C(C)(C)C)[C@H]1Cc4ccc(O)c5c4[C@@]3(CCN1)[C@H]2O5
concentration in human placenta and meconium relative to BUP [1]: at least 10 fold | neonatal dependence and withdrawal after prenatal exposure [2]: induces dependence and withdrawal in neonatal rats
